Assay results taken from ChEMBL document CHEMBL1135364, “Synthesis and structure-activity relationships of oxime neurokinin antagonists: discovery of potent arylamides” (Bioorg Med Chem Lett, 2002).

Amino acid sequences for entries named in this document (tags omitted).
UniProt P25103, whole entry: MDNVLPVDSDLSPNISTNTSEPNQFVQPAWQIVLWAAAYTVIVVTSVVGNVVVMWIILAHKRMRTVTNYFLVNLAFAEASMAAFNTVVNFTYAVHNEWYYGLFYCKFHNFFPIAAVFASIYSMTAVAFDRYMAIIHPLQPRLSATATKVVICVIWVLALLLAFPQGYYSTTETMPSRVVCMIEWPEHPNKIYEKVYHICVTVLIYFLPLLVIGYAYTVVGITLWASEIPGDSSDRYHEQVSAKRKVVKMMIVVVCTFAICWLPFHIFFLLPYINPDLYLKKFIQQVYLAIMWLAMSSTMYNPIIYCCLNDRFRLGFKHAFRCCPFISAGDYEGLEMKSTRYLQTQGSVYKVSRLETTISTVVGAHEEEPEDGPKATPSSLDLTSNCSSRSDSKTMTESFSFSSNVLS

Target: Substance-P receptor (Homo sapiens, UniProt P25103)
Assay: Tested for binding affinity against neurokinin 1 (NK1) receptor

CO/N=C(\CN(C)C(=O)c1ccccc1OC)C(CCN1CCC(O)(c2ccccc2)CC1)c1ccc(Cl)c(Cl)c1 (stereo unspecified)
Ki: 58 nM
